Sequences of proteins named here, by UniProt entry; tags and fusion partners are left off.
UniProt O94768, whole entry: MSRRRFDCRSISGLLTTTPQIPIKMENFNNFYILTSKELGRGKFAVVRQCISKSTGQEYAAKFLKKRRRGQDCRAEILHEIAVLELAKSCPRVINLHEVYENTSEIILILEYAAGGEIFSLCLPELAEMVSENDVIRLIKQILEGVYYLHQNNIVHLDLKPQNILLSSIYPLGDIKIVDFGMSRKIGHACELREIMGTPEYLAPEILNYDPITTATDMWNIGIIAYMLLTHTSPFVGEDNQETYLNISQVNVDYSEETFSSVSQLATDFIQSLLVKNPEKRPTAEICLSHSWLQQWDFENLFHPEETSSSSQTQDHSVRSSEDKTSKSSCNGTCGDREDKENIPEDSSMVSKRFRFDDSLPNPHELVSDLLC

According to US20240308992A1 (Biopolar Youtang(Guangdong) Pharmaceutical Co., Ltd., priority 2021, published 2024):

Biological target: Drak2 (Homo sapiens, UniProt O94768)
Experiment: Drak2 activity test, ADP-Glo kinase assay (Promega)
Format: biochemical
Conditions: read-out: IC50_Drak2, inhibition of Drak2 kinase activity, 2 h room temperature, activity range classes

IC50 [nM]	Compound
101 to 1000	CCCCC(=O)Nc1ccc(-c2cncc(-c3ccc(C(=O)N(C)C4CCN(C)CC4)c(OC)c3)n2)s1
101 to 1000	CCCCC(=O)Nc1cc(-c2cncc(-c3ccc(C(=O)N(C)C4CCN(C)CC4)c(OC)c3)n2)cs1
